The source of these data is ChEMBL document CHEMBL3886876, “Kinase modulators for the treatment of cancer” (2016).

Sequences of proteins named here, by UniProt entry; tags and fusion partners are left off. A change or cut given only in a name is not applied to a line headed by its entry.
UniProt Q8N4C8: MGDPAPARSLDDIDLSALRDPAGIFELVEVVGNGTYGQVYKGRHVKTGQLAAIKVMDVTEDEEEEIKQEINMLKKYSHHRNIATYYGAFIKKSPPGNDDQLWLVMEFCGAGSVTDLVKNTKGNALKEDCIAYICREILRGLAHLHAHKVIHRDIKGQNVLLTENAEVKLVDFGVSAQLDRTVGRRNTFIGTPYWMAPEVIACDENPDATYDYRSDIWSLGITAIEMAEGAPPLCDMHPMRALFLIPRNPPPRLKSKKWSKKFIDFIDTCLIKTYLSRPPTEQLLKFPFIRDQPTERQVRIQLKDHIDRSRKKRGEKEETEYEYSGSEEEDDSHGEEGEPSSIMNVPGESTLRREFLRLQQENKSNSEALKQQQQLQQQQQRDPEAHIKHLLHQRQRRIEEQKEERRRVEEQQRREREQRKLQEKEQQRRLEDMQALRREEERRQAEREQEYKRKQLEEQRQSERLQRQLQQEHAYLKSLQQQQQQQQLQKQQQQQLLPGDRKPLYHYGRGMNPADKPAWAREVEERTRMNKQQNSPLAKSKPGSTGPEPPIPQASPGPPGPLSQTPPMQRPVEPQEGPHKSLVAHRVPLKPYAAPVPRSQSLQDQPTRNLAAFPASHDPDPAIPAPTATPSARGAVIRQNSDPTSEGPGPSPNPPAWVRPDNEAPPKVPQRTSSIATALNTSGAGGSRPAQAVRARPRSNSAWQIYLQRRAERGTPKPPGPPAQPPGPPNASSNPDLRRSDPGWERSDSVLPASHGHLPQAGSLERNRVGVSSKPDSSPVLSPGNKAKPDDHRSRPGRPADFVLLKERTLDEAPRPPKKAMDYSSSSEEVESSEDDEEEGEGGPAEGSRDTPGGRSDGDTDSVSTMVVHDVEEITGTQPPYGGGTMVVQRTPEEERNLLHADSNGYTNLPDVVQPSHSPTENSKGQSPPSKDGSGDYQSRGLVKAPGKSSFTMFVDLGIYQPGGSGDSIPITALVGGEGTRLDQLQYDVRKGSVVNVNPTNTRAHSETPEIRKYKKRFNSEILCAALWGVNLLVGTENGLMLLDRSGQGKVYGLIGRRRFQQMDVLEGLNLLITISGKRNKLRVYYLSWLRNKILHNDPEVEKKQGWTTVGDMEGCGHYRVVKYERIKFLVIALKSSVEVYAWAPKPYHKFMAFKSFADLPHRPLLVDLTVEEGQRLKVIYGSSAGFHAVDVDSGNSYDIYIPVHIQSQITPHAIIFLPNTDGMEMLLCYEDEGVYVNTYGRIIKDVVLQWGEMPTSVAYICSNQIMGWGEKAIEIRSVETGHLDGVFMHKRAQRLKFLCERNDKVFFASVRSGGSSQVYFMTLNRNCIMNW

For orientation: IC50 means the midpoint of a concentration-inhibition curve.

Molecules are shown by their SMILES.

The target in this test is Misshapen-like kinase 1 (Homo sapiens, UniProt Q8N4C8). Put plainly: Kinase Assay: FlashPlates from Perkin Elmer (Boston, Mass., USA) with a 50 μl reaction volume are used. The reaction cocktail was pipetted in 4 steps in the following order: 15 μl of ATP solution (in H2O), 20 μl of assay buffer (see below), 5 μl of test sample in 10% DMSO, 10 μl of enzyme/substrate mixture (in H2O). The assay for all enzymes contained 60 mM HEPES-NaOH, pH 7.5, 3 mM MgCl2, 3 mM ….

For `Nc1c(-c2ccc(F)cc2)c(-c2ccncc2)nn1-c1c(Cl)cc(Cl)cc1Cl`, the IC50 was 99 nM.
